Experimental findings from patent US20070010428A1, “Inhibitors of signal transduction and activator of transcription 3” (priority 2004, published 2007) are described below.

Molecules are shown by their SMILES.

In the assay the test system is SH2 domain of Stat3. Briefly: IC50 FP (nM). The text has this: Table printed on a drawing sheet, FIGURE 14a
Head of the field: IC50 FP (nM)
The patent's description of the figure: FIGS. 14A-E is a series of small molecule peptidomimetics (compounds 5-19) along with IC50 values from an in vitro fluorescence polarization assay.
First copying reader's note: The column headed 'Structure' holds only drawn chemical structures (left empty here); the written peptidomimetic sequence stands in an unheaded column to its left.
Where the first naming reader finds the target: passage: The small peptidomimetics were assayed for their ability to bind to the SH2 domain of Stat3 using fluoresence polarization.

What is called IC50 is the concentration that gives 50% inhibition. For the compound `CC(=O)N[C@@H](Cc1ccc(OP(=O)(O)O)cc1)C(=O)N[C@@H](CC(C)C)C(=O)N1CCC[C@H]1C(=O)N[C@@H](CCC(N)=O)C(=O)N[C@H](C(=O)N[C@H](C(N)=O)C(C)C)[C@@H](C)O` [Peptide 1, Ac-pTyr-Leu-Pro-Gln-Thr-Val-NH2], the IC50 is 220 nM.
